In ChEMBL document CHEMBL2321659, “Design, synthesis, and biological evaluation of indenoisoquinoline rexinoids with chemopreventive potential” (J Med Chem, 2013):

Assays:
[1] = target: T1, Retinoic acid receptor RXR-alpha (Homo sapiens) (UniProt P19793); assay: Activation of human RXRalpha activity expressed in COS1 cells assessed as induction ratio at 50 uM after 12 hrs by RXRE-luciferase reporter gene assay relative to untreated control; format: cell-based; conditions: COS-1
T1 sequence (whole entry): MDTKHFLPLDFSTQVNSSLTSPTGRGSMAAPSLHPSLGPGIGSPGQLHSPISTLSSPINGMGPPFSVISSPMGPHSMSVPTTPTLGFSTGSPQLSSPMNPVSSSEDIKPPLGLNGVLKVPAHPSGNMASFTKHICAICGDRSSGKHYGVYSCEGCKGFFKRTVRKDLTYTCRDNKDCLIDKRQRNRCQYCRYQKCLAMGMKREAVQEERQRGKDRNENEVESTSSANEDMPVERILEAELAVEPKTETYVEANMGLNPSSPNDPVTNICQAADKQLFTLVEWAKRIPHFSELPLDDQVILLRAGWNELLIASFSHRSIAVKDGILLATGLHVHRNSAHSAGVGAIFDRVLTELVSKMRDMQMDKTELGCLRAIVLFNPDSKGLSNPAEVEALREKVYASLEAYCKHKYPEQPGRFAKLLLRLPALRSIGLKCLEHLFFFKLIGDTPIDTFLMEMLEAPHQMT
How it was run: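 COS-1 cells transiently co-transfected per well with 100 ng RXRE-firefly luciferase reporter, 50 ng human RXRα expression vector and 3 ng Renilla luciferase vector using Lipofectamine 2000 for 24 h, then exposed to compound for a further 12 h. Dual-luciferase read-out. Induction ratio taken at 50 µM test concentration.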

[2] = target: T1, Retinoic acid receptor RXR-alpha (Homo sapiens); assay: Binding affinity to RXRalpha (unknown origin) at 10 uM after 2 hrs by ultrafiltration LC-MS/MS analysis relative to control
How it was run: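 Purified RXRα (10 µM stock in 50 mM Tris-HCl pH 7.5, 50 mM KCl, 1 mM EDTA) incubated with ligand (final 10 µM, DMSO) for 2 h at room temperature. Then 10 kDa ultrafiltration at 4 °C, three ammonium acetate pH 7.5 washes, release with 90% methanol, UHPLC-MS/MS (SRM). Binding ratio is peak area versus denatured-RXRα (60–70 °C, 15 min) control.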

[3] = target: T2, Vitamin D3 receptor (Homo sapiens) (UniProt P11473); assay: Binding affinity to VDR (unknown origin) after 30 mins by ultrafiltration LC-MS/MS analysis relative to 6-(6-aminohexyl)-5H-indeno[1,2-c]isoquinoline-5,11(6H)-dione; parameters: Activity: concentration or dose not given beside the values
T2 sequence (whole entry): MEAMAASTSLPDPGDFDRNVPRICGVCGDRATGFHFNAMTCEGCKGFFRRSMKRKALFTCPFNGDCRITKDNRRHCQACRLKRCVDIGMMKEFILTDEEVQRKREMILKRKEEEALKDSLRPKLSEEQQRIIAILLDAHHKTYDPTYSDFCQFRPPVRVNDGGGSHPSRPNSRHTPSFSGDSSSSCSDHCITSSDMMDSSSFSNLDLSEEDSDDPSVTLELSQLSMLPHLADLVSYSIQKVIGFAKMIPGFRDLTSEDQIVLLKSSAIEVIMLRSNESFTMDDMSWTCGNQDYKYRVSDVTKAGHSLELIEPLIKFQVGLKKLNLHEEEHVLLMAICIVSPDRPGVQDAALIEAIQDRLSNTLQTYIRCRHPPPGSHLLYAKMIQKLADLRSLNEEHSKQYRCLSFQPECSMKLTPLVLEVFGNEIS
How it was run: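 Recombinant VDR incubated with ligand in 20 µL for 30 min at 37 °C in the dark with shaking. Then ultrafiltration at 4 °C and rinses with cold 50 mM ammonium acetate/0.1 mM NaCl pH 8.0. Bound ligand released with methanol containing genistein, dried under N2 and quantified by LC-MS. Controls were boiled hVDR or no protein.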

Ratio [1] | SMILES | fold change (FC) [2] | Activity [3] | fold change (FC) [3]
> 1 | CC(=O)NCCCn1c2c(c3ccc(N)cc3c1=O)C(=O)c1ccccc1-2 |  |  | 
> 1 | CC(=O)Nc1ccc2c3c(n(CCCN)c(=O)c2c1)-c1ccccc1C3=O |  | 50.7% | 0.507

SMILES | Ratio [1] | fold change (FC) [2] | Activity [3] | fold change (FC) [3]
NCCCn1c2c(c3ccc(N)cc3c1=O)C(=O)c1ccccc1-2 | > 1 | 1.9 | 17.3% | 0.173
